Protein sequences, listed by entry. Tags and fused reporters are not part of them.
UniProt P31645, whole entry: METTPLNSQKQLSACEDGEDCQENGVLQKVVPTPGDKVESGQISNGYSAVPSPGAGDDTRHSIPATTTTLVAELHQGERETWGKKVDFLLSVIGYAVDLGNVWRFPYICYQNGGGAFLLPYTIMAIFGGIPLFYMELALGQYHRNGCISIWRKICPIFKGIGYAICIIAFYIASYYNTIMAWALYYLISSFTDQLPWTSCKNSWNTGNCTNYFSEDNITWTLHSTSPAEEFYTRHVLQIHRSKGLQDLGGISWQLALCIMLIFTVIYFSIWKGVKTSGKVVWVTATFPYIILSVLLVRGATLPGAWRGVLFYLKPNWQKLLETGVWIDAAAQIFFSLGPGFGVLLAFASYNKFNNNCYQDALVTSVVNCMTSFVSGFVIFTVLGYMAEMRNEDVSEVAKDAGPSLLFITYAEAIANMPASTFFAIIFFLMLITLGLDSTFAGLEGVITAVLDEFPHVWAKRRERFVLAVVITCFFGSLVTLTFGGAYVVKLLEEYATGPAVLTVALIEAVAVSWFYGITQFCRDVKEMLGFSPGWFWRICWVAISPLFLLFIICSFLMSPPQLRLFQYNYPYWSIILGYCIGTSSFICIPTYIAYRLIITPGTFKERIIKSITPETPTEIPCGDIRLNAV
UniProt Q01959, whole entry: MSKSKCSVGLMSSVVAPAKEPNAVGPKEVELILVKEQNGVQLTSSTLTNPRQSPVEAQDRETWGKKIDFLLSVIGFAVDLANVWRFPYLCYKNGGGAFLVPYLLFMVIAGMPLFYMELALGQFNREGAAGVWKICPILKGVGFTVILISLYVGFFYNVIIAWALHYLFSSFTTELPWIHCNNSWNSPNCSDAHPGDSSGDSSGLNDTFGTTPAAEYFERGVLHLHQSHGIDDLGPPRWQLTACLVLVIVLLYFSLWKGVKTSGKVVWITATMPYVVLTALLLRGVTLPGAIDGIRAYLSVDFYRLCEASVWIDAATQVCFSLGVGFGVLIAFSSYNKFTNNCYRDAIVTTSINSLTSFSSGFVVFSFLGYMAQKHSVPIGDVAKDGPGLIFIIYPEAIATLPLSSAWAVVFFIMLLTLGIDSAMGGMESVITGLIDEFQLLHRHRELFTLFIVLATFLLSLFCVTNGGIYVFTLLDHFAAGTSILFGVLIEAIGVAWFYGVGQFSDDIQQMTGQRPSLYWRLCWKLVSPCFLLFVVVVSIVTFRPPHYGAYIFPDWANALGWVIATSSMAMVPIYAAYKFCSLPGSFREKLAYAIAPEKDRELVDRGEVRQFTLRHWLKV

The target in the first test is human SERT (Homo sapiens, UniProt P31645). The experiment in a line: Inhibitory activity assay against 5-HT transporter (neurotransmitter transporter uptake assay kit). In kind it is cell-based. To be noted: read-out: 5-HTT (IC50); HEK-293 cells overexpressing human SERT.
In the case of `CN[C@]1(c2ccccc2)CCc2ccsc2C1`, the IC50 (commonly the concentration that inhibits the measured activity by half) was found to be 910 nM.

As for `N[C@]1(c2ccccc2)CCc2sccc2C1`, the 50% inhibitory concentration (IC50) is 710 nM.

On to `CN[C@]1(c2ccccc2)CCc2sccc2C1`, for which the IC50 amounted to 900 nM.

Another test has as its target human DAT (Homo sapiens, UniProt Q01959). The experiment in a line: DAT transporter inhibitory activity test (neurotransmitter transporter uptake assay kit). Format: cell-based. As to conditions: read-out: DAT (IC50); DAT stably transfected HEK cells.
Regarding `CN[C@@]1(c2ccccc2)CCc2ccsc2C1`, the half-inhibitory concentration (IC50) stood at 250 nM.

Turning to `CN[C@@]1(c2ccccc2)CCc2sccc2C1`, the IC50 turned out to be 810 nM.

Take `N[C@@]1(c2ccccc2)CCc2sccc2C1`: the IC50 amounted to 2200 nM.

The values are drawn from patent US20260174739A1 (priority 2022, published 2026).
